Here are results for one molecule from patent US5298508A, “Irreversible inhibitors of adenosine receptors” (priority 1992, dated 1994).

The chains behind the UniProt entries cited, without tags or fusion partners.
UniProt P25099, whole entry: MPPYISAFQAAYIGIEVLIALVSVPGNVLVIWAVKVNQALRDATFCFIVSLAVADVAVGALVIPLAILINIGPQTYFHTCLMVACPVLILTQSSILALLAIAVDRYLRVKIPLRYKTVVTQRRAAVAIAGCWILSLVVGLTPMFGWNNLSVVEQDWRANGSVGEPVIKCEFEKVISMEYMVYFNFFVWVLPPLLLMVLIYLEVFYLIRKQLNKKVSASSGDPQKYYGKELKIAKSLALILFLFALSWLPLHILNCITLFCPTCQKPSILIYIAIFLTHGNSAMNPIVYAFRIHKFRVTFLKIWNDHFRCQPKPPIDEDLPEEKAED

The target of the experiment is T1, A1 adenosine receptors (Rattus norvegicus, UniProt P25099).
T1 construct: A1 adenosine receptors in rat cerebral cortex membranes; from tissue; host or cells: rat cerebral cortex membranes
Briefly: inhibition of binding of [3H]N6-phenylisopropyladenosine ([3H]PIA) to A1 adenosine receptors in rat cerebral cortex membranes. Conditions: Table II, against [3H]PIA, read-out: Ki at central A1 receptors, rat. The protocol: Ukena et al., FEBS Letters 209;122, 1986.
For the biochemical assays, stock solutions of xanthines in the millimolar concentration range in dimethylsulfoxide were prepared and stored frozen. The solutions were warmed to 50° C. prior to dilution in aqueous medium. […] Acad. Sci. USA, 83:4089, 1986. Inhibition of binding by a range of concentrations of a xanthine or adenosine derivative was assessed in triplicate in at least three separate experiments.

What is called Ki is a dissociation constant, usually derived from enzyme kinetics or from competition with a known ligand. `NCCNC(=O)Cc1ccc(NC(=O)Cc2ccc(Nc3ncnc4c3ncn4[C@@H]3O[C@H](CO)[C@@H](O)[C@H]3O)cc2)cc1` [Compound 26a, reference compound]: the Ki stood at 1.3 ± 0.3 nM.
